Measurements taken from ChEMBL document CHEMBL5212743, “Selectivity Literature for EUbOPEN Chemogenomics Library wave 3” (2023).

By UniProt entry, the sequences of proteins in these tests, tags left out. Where a name states a change or a piece, a line headed by the entry shows the natural chain unless it says otherwise.
UniProt P08253: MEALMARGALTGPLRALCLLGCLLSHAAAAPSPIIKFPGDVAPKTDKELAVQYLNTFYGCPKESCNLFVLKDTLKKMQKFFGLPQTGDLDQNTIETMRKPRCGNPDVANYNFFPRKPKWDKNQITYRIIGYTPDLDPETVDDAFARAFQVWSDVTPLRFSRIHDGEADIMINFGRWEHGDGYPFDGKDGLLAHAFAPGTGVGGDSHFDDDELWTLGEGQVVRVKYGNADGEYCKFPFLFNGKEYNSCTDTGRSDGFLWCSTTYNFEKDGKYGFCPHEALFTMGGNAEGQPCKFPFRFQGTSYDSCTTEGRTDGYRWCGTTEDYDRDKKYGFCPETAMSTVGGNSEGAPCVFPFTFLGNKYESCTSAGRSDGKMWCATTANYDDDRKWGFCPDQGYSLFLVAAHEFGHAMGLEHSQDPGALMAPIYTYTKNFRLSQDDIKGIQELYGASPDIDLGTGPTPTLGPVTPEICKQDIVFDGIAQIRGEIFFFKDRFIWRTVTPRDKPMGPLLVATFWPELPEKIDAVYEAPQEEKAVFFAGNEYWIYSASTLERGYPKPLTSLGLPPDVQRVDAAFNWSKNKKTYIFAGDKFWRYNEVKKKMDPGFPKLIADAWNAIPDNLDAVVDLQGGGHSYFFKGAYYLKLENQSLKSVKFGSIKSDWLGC

Molecular target: 72 kDa type IV collagenase (Homo sapiens, UniProt P08253)

CCOC(=O)c1cc2cc(-c3cc(C(=O)NCc4ccc(C(=O)O)cc4)nn3C)ccc2[nH]1 [BI 4394]
IC50: > 18 µM
